Source: PubChem BioAssay
RXFP1 antag = RXFP1 (human) relaxin receptor antagonism | 350,000 tested, 0.59% active | HEK293-RXFP1, relaxin-stimulated cAMP HTRF, 30 min; active compounds read low | Q9HBX9 | activity change, negative = inhibition, % at 57.5 µM;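 active means activity change of -60% or lower, but not beyond a set lower limit; inconclusive means change between -60% and -40%, or beyond the set limit; inactive means change above -40%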
GALK inhibitor = blocks human galactokinase activity. Purified GALK, Kinase-Glo residual ATP luminescence. 270,000 tested, 0.007% active. AID 1868. Potency, µM (top dose mostly 57.5 µM), most hits filed as inhibitors
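ATP-depletion format; final 35 uM ATP, 100 uM D-galactose, 5 nM enzyme; pH 8.0 HEPES/Mg2+ buffer; 60 min RT; luminescence read 10 min after detection reagent.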
Luc counter = Kinase-Glo luciferase inhibition (counter-screen); Q27757; 200,000 tested, 0.28% active; Potency, µM (top dose mostly 38.3 µM), most hits filed as inhibitors; Kinase-Glo luciferase, ATP luminescence, 8 min; further: nearly all actives have a fitted effect of over 60% in size
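Compounds were added to a substrate mix at pH 7.2 (50 mM imidazole, 10 uM ATP, within the enzyme's linear range), followed by Kinase-Glo detection reagent; luminescence was measured after 8 minutes at ambient temperature.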
RXFP1 agonist = RXFP1 (human) receptor agonism. Q9HBX9. HEK293T-RXFP1 cAMP TR-FRET, 30 min; response scale: percent of porcine relaxin response, buffer zero. Potency, µM (series often up to 57.5 µM), hits mostly activators. 370,000 tested, 0.3% active; further: nearly all actives have a fitted effect of over 60% in size
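cAMP rise read by TR-FRET after 30 min, 37C compound exposure (up to 58 uM) in RXFP1-transfected HEK293 cells with Ro 20174 present. EC50 from Hill-equation fits, with 29 nM porcine relaxin as 100% and buffer as basal.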
miR-21 reporter = raises the signal of a miR-21 reporter | HeLa miR-21 FLuc reporter, luciferase, 48 h | Potency, µM (highest dose often 38.3 µM) | 340,000 tested, under 10 active | AID 2288; active = well fitted rising curve with a large enough effect; inconclusive = small, poorly fitted or top-dose-only effect; inactive = no such curve, though single readings can be large or run the other way;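 also: miR-21 action dims this reporter so a rising signal means less miR-21 action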
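Luminescence from a firefly luciferase reporter carrying a miR-21 binding site downstream, stably expressed under a CMV promoter in HeLa cells that make miR-21 endogenously, reports miRNA modulation after 48 h compound exposure up to approximately 40uM final.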
PKM2 activator = increases activity of human pyruvate kinase M2 | P14618 | purified PKM2, Kinase-Glo ATP luminescence, activation; response scale: 0% is enzyme alone, no compound | Potency, µM (titrated, usually from 57.5 µM), most hits filed as activators | 260,000 tested, 0.34% active | AID 1631; further: nearly all actives have a fitted effect of over 55% in size
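ATP formation by purified human PK-M2, quantified via coupled luciferase luminescence after 1 h at room temperature with 0.1 mM ADP and 0.5 mM PEP final.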
Numbers stand for hits. Sampled rows, rich in hits. Any-hit rate of the full collection: about 0.92%. Unless noted, the call rests on the fitted dose curve; in most records, active means well fitted curve in the direction sought with a large enough effect; inconclusive means small, poorly fitted or top-dose-only effect, or another doubt; inactive means no such curve, though single readings can be large; an effect the other way counts as inactive or inconclusive.

Cc1cc(C)n(-c2nc3ccccc3nc2N2CCN(S(=O)(=O)c3ccc4ccccc4c3)CC2)n1 was read as RXFP1 antag inactive, GALK inhibitor inactive, Luc counter inactive, RXFP1 agonist inactive, miR-21 reporter inactive and PKM2 activator inactive.
CCC(C)(C)C1CCc2c(sc(NC(=O)c3ccccc3C(=O)O)c2C#N)C1 (stereo not drawn) was read as RXFP1 antag -69, GALK inhibitor inactive, RXFP1 agonist inactive, miR-21 reporter inactive and PKM2 activator inactive.
`CC1CCc2c(sc(NC(=O)c3ccccc3C(=O)O)c2C#N)C1` (stereo not drawn) gave RXFP1 antag inactive, GALK inhibitor inactive, Luc counter inactive, RXFP1 agonist inactive, miR-21 reporter inactive and PKM2 activator inactive.
For O=[N+]([O-])c1ccc(C=CC=Cc2ccccc2)cc1 the results were RXFP1 antag inactive.
`CN(c1ccccc1)c1ccc(/C=C/[N+](=O)[O-])cc1` gave RXFP1 antag -108, Luc counter inactive, RXFP1 agonist inactive, miR-21 reporter inconclusive and PKM2 activator inactive.
CCCCCCOc1ccc(C2C(=O)N(C3CCCCC3)CC(=O)N2CCC)cc1 (stereo not drawn) was read as RXFP1 antag -69, RXFP1 agonist inactive and miR-21 reporter inactive.
Screening CCCCCCOc1ccc(C2C(=O)N(C3CCCCC3)CC(=O)N2C2CCCCC2)cc1 (stereo not drawn) returned RXFP1 antag inactive, RXFP1 agonist inactive and miR-21 reporter inactive.
Screening CCCc1cc(-c2[nH]ncc2-c2ccc3c(c2)OCCCO3)c(O)cc1O returned RXFP1 antag -76, GALK inhibitor inactive, Luc counter inactive, RXFP1 agonist inactive, miR-21 reporter inactive and PKM2 activator inactive.
Screening CCCc1cc(-c2[nH]ncc2-c2ccc(C(=O)OCC)o2)c(O)cc1O returned RXFP1 antag inactive, GALK inhibitor inactive, Luc counter inactive, RXFP1 agonist inactive, miR-21 reporter inconclusive and PKM2 activator inactive.
For CC(C)NC(=O)N(C)C[C@H]1Oc2cc(C#Cc3ccc(F)cc3)ccc2S(=O)(=O)N([C@H](C)CO)C[C@H]1C the results were RXFP1 antag inactive.
Screening Oc1c(C=Nc2cccc3cccnc23)sc2ccccc12 returned GALK inhibitor inactive, Luc counter 10µM, RXFP1 agonist inactive, miR-21 reporter inactive and PKM2 activator inactive.
COc1ccc(N2Cc3cccc(C(=O)Nc4ccc(C(C)C)cc4)c3C2=O)cc1 was read as RXFP1 antag inactive, RXFP1 agonist inactive and miR-21 reporter inactive.
`C=C(C)C(=O)/C=C/c1ccc(Br)cc1` gave Luc counter inactive.
Screening Cc1ccc(/C=C(\C#N)C(=O)Nc2ccc(Br)cc2)o1 returned RXFP1 antag inactive, RXFP1 agonist inconclusive and miR-21 reporter inactive.
Screening N#C/C(=C\c1ccc([N+](=O)[O-])o1)C(=O)Nc1ccc(F)cc1 returned RXFP1 antag -68, GALK inhibitor inactive, Luc counter inactive, RXFP1 agonist inactive, miR-21 reporter inactive and PKM2 activator inactive.
For CC(=O)O[C@@H]1CC2C3CCc4cc(OC(=O)c5ccccc5)ccc4C3CCC2(C)[C@H]1OC(C)=O (stereo partly drawn) the results were RXFP1 antag inactive.
Screening CCCCNC(=O)c1ccc(Cn2c(=S)[nH]c3c([nH]c4ccc(OC)cc43)c2=O)cc1 returned RXFP1 antag -85, GALK inhibitor inactive, Luc counter inactive, RXFP1 agonist inactive, miR-21 reporter inactive and PKM2 activator inactive.
For CC[C@H](C)NC(=O)c1ccc(Cn2c(=S)[nH]c3c([nH]c4ccc(OC)cc43)c2=O)cc1 the results were RXFP1 antag -64, GALK inhibitor inactive, Luc counter inactive, RXFP1 agonist inactive, miR-21 reporter inactive and PKM2 activator inactive.
